Sampled rows, rich in hits. Any-hit rate of the full collection: about 1.8%.
Cneo AK release – Cryptococcus neoformans cell lysis inducers, primary screen, AK release luminescence, single concentration; C. neoformans lysis, adenylate kinase release luminescence, 4 h; normalised: neutral wells 0, clomiphene wells 100; lysis activity, % at 15 µM; hit rate 0.2% among 360,000;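 active means mean lysis activity across replicates of at least 80%, whatever share of replicates individually reach that level; inactive means mean lysis activity below 80%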
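Test system: log-phase Cryptococcus neoformans yeast cells; Quantity: yeast cell density of 5 × 10^6 cells/mL; Buffer or medium: YPD; Doses: single compound concentration per well; Timing: 4 h at 37 °C static, read 1 h later; Measured by: AK luminescence; Read-out basis: lysis from increased AK signal; Control set: Clomiphene as positive control.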
UUG fidelity – modulators of yeast start codon fidelity, primary screen, whole organism, S. cerevisiae, single point, plate reader | AID 602363, 2012 | S. cerevisiae UUG-firefly luciferase reporter, luminescence/redox ratio | activity score, % at 18.7 µM | hit rate 0.13% among 350,000;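 active = replicate mean at a twofold rise or more, about +100% in these data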;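 also: firefly luciferase made from a UUG start codon reports start codon fidelity; reporter light over untreated wells divided by growth signal over untreated wells; some hits fall short of that in this replicate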
E-sel inducer – E-selectin induction in HUVECs, primary screen, imaging, HUVEC, immunofluorescence imaging, single point; P16581; normalized: neutral wells 0, TNF-alpha wells 100; activation, % at 7.58 µM; hit rate 0.37% among 260,000; AID 686992, 2013;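 active means mean E-selectin-positive cell signal at least 10% of the positive control, reached in at least 60% of replicates, without over 20% cell loss; inconclusive means no rule given, readout overlaps actives, possibly toxicity-flagged; inactive means the rest, including those meeting only one limit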
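Assay system: HUVEC primary endothelial cells. Input: 3,000 HUVEC seeded per well. Doses: one compound dose added by pin transfer. Read-out basis: % PE-positive cells. Benchmarks: TNF-alpha high, DMSO low. Detection: immunofluorescence imaging. Buffer or medium: EGM-2, gelatin.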
DENV2 CPE rescue – inhibitors of DENV2 cytopathic effect, primary screen, cell-based, plate reader, single concentration. DENV2-infected cells, cytopathic effect rescue. CPE inhibition, % at 9.99 µM. hit rate 1.7% among 350,000; in the data active means CPE inhibition above about 20%, passing the limit was not always enough; inconclusive means no clear call, values can overlap the other calls; tested in BHK-21 cells;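 further: 0% = median of neutral control wells and 100% = median of positive control wells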
Starred values were filed as active, the others as inactive; ? = inconclusive; / = no result given.

Values run as follows: Cneo AK release | E-sel inducer | DENV2 CPE rescue | UUG fidelity
1. CN(C)C(=O)C[C@H]1CC[C@@H]2[C@@H](COc3ccc(NC(=O)NCc4ccccc4)cc3C(=O)N2C)O1
→ 2 | 0 | 6 | /
2. C[C@H](NC(=O)[C@H]1[C@H](CO)[C@H]2Cn3c(ccc(-c4cccc(F)c4)c3=O)[C@H]2N1C)c1ccccc1
→ / | 0 | -10 | /
3. CCOc1ccc(/C=C2\SC(=O)N(CCNC(=O)CN3C(=O)NC4(CCCC4)C3=O)C2=O)cc1OC
→ -1 | 0 | 56* | 2
4. C[C@H](CO)N1C[C@H](C)[C@H](CN(C)CC2CCCCC2)Oc2c(NC(=O)C3CC3)cccc2C1=O
→ 2 | 0 | 36* | -12
5. C[C@@H]1CN([C@H](C)CO)C(=O)c2cccc(NC(=O)C3CC3)c2O[C@H]1CN(C)CC1CCCCC1
→ 0 | 0 | 75* | 0
6. COCCn1c(SCC(=O)Nc2ccc3c(c2)OCCO3)nnc1C(C)C
→ 0 | 0 | 22* | -11
7. CCCc1nnc(SCC(=O)Nc2ccc3c(c2)OCCO3)n1CCOC
→ 5 | / | 1 | -19
8. Cc1noc(C)c1NC(=O)Nc1cccc2c1O[C@H](CN(C)Cc1ccc(C(=O)O)cc1)[C@H](C)CN([C@@H](C)CO)C2=O
→ -4 | / | 26* | -35
9. COc1ccc(CN(C)C[C@H]2Oc3c(NC(=O)Nc4cccc5ccccc45)cccc3C(=O)N([C@H](C)CO)C[C@H]2C)cc1
→ 2 | 0 | -7 | 15
10. COc1ccc(NC(=O)Nc2cccc3c2O[C@@H](CN(C)Cc2ccc(C(=O)Nc4ccccc4N)cc2)[C@@H](C)CN([C@H](C)CO)C3=O)cc1
→ / | -2 | -10 | /
11. COc1ccc(CN(C)C[C@@H]2Oc3c(NC(=O)Nc4cccc5ccccc45)cccc3C(=O)N([C@@H](C)CO)C[C@@H]2C)cc1
→ 114* | 0 | -9 | 10
12. Cc1cc(C(=O)Nc2cccc3c2O[C@@H](CN(C)Cc2ccc(C(=O)O)cc2)[C@@H](C)CN([C@H](C)CO)C3=O)n(C)n1
→ 2 | -3 | 50* | -8
13. COc1ccc(NC(=O)Nc2cccc3c2O[C@H](CN(C)Cc2ccc(C(=O)Nc4ccccc4N)cc2)[C@H](C)CN([C@H](C)CO)C3=O)cc1
→ -2 | 34* | -6 | 10
14. CCC(=O)Nc1ccc2c(c1)OC[C@@H](C)N(C(=O)CN(C)C)C[C@H](C)[C@@H](OC)CN(C)C2=O
→ 1 | 0 | -12 | 3
15. C[C@@H]1CN([C@H](C)CO)C(=O)c2cc(C#CC(C)(C)O)cnc2O[C@H]1CN(C)C(=O)CN(C)C
→ -1 | 0 | -7 | 4
16. Cc1noc(C)c1NC(=O)Nc1cccc2c1O[C@H](CN(C)Cc1ccc3c(c1)OCO3)[C@@H](C)CN([C@H](C)CO)C2=O
→ -1 | -3 | 1 | -1
17. C[C@H](CO)N1C[C@H](C)[C@H](CN(C)Cc2ccc(-c3ccccc3)cc2)Oc2ccc(NC(=O)Nc3cccc4ccccc34)cc2C1=O
→ 6 | 5 | 25* | -5
18. C[C@H]1CN([C@@H](C)CO)C(=O)c2cccc(NC(=O)Nc3cccc4ccccc34)c2O[C@H]1CN(C)Cc1ccccc1
→ -3 | 0 | -5 | 17
19. COc1ccc(CN(C)C[C@@H]2Oc3c(NC(=O)Nc4ccccc4)cccc3C(=O)N([C@@H](C)CO)C[C@@H]2C)cc1
→ -3 | 0 | 9 | -14
20. C[C@H]1CN([C@@H](C)CO)C(=O)c2cc(NC(=O)Nc3cccc4ccccc34)ccc2O[C@@H]1CN(C)Cc1ccc(-c2ccccc2)cc1
→ 31 | 0 | -8 | -4

New compounds follow.
Values run as follows: Cneo AK release | E-sel inducer | DENV2 CPE rescue | UUG fidelity
21. C[C@H](CO)N1C[C@H](C)[C@@H](CN(C)Cc2ccc(-c3ccccc3)cc2)Oc2c(NC(=O)Nc3cccc4ccccc34)cccc2C1=O
→ / | 90* | / | -10
22. COc1ccc(CN(C)C[C@@H]2Oc3c(NC(=O)Nc4ccccc4)cccc3C(=O)N([C@H](C)CO)C[C@H]2C)cc1
→ 48 | 2 | 30* | 12
23. Cc1noc(C)c1NC(=O)Nc1cccc2c1O[C@H](CN(C)Cc1ccc3c(c1)OCO3)[C@@H](C)CN([C@@H](C)CO)C2=O
→ 13 | -7 | 21* | 7
24. C/C=C/c1ccc([C@H]2[C@H]3CN(S(=O)(=O)c4cccs4)CCCCN3[C@H]2CO)cc1
→ -1 | 0 | 7 | 15
25. C[C@@H]1CN([C@H](C)CO)C(=O)c2cccc(NC(=O)Nc3ccccc3)c2O[C@H]1CN(C)Cc1ccc(C(=O)O)cc1
→ -2 | 0 | 22* | 0
26. C[C@H]1CN([C@@H](C)CO)C(=O)c2cccc(NC(=O)Nc3ccccc3)c2O[C@@H]1CN(C)Cc1ccc(C(=O)O)cc1
→ -4 | 1 | 6 | -7
27. C[C@@H]1CN([C@@H](C)CO)S(=O)(=O)c2ccc(-c3ccncc3)cc2O[C@H]1CN(C)C(=O)C1CCCCC1
→ / | 0 | / | 0
28. CC(C)C#Cc1cnc2c(c1)C(=O)N([C@@H](C)CO)C[C@H](C)[C@@H](CN(C)C(=O)Nc1cc(F)ccc1F)O2
→ -6 | 1 | 3 | 26
29. O=C(NC1CCN(Cc2ccccc2)CC1)c1ccc(CS(=O)c2ccc(F)cc2)o1 (centres undefined)
→ 0 | 0 | 9 | -20
30. O=C(NC1CCN(Cc2ccccc2)CC1)c1ccc(CS(=O)c2ccccc2Cl)o1 (centres undefined)
→ 0 | 0 | 70* | -13
31. COc1cc(OC)cc(C(=O)Nc2ccc3nc4n(c(=O)c3c2)CCCC4)c1
→ 1 | / | 119* | 1
32. COc1cccc(C(=O)Nc2ccc3nc4n(c(=O)c3c2)CCCC4)c1
→ 1 | 0 | 18 | -4
33. CN(CC(=O)Nc1ccccc1Cl)C(=O)COC(=O)c1cccs1
→ -2 | / | 57* | -11
34. O=C(CCN1CCCCC1)NCC[C@H]1CC[C@@H](NC(=O)C2CCCCC2)[C@@H](CO)O1
→ / | 0 | -1 | /
35. O=C(CCN1CCCCC1)NCC[C@@H]1CC[C@H](NC(=O)C2CCC2)[C@@H](CO)O1
→ 52 | -1 | 46* | -18
36. O=C(CCN1CCCCC1)NCC[C@H]1CC[C@H](NC(=O)C2CCC2)[C@@H](CO)O1
→ 2 | 0 | 23* | -5
37. O=C(CCN1CCCCC1)NCC[C@H]1CC[C@H](NC(=O)C2CCC2)[C@H](CO)O1
→ -2 | 1 | -8 | -12
38. COc1cccc(CNC(=O)C[C@H]2CC[C@H](NS(=O)(=O)c3ccccc3OC)[C@H](CO)O2)c1
→ 0 | 0 | 0 | -20
39. Cc1nc2ccccc2n1C(c1cccnc1)c1nc2ccccc2[nH]1 (centres undefined)
→ / | 0 | 38* | /
40. C[C@@H]1CN([C@H](C)CO)C(=O)c2cc(NC(=O)c3ccncc3)ccc2O[C@@H]1CN(C)S(=O)(=O)c1cccs1
→ 1 | 0 | ? | -11
41. c1ccc(CCNCCCOc2cccc3ccccc23)cc1
→ 14 | / | 35* | -9
42. CO[C@H]1CC[C@@H]2CCOc3c(C#N)cccc3C(=O)N(C)C[C@H](OC)[C@@H](C)C(=O)N(C)C[C@@H]1O2
→ 86* | 0 | ? | /

Looked up by structure from above:
Values run as follows: Cneo AK release | E-sel inducer | DENV2 CPE rescue | UUG fidelity
21. C[C@H](CO)N1C[C@H](C)[C@@H](CN(C)Cc2ccc(-c3ccccc3)cc2)Oc2c(NC(=O)Nc3cccc4ccccc34)cccc2C1=O
→ / | 90* | / | -10
27. C[C@@H]1CN([C@@H](C)CO)S(=O)(=O)c2ccc(-c3ccncc3)cc2O[C@H]1CN(C)C(=O)C1CCCCC1
→ / | 0 | / | 0
30. O=C(NC1CCN(Cc2ccccc2)CC1)c1ccc(CS(=O)c2ccccc2Cl)o1 (centres undefined)
→ 0 | 0 | 70* | -13
24. C/C=C/c1ccc([C@H]2[C@H]3CN(S(=O)(=O)c4cccs4)CCCCN3[C@H]2CO)cc1
→ -1 | 0 | 7 | 15
23. Cc1noc(C)c1NC(=O)Nc1cccc2c1O[C@H](CN(C)Cc1ccc3c(c1)OCO3)[C@@H](C)CN([C@@H](C)CO)C2=O
→ 13 | -7 | 21* | 7

Screening results deposited in PubChem BioAssay by Broad Institute.
